Assay results reported in article PMC4607407 (PLoS ONE, 2015).

Test system: KPL-4 tumors
Assay: KPL-4 xenograft combination study
Format: in vivo, mice
Conditions: vs untreated control; ARQ 092 60 mg/kg oral daily 12 days; trastuzumab 15 mg/kg iv every three days; paclitaxel 15 mg/kg iv every 6 days
Description: Paclitaxel was dosed, intravenously at a dose of 15 mg/kg every 6 days.
The tumor length and width (mm) were measured using a digital caliper. The estimated tumor volume (mm^3) was calculated according to the following formula: 0.5 x (tumor length) x (tumor width)^2, and reported as the mean ± SEM.

Substance “trastuzumab: trastuzumab purchased from Chugai Pharmaceutical Co.” has a tumor growth inhibition of 38%.
